Measured values reported in patent US5227488A, “Aza spiro decane and use thereof in treating CNS disorders” (Novo Nordisk A/S, priority 1989, dated 1993).

By UniProt entry, the sequences of proteins in these tests, tags left out.
UniProt P28564, whole entry: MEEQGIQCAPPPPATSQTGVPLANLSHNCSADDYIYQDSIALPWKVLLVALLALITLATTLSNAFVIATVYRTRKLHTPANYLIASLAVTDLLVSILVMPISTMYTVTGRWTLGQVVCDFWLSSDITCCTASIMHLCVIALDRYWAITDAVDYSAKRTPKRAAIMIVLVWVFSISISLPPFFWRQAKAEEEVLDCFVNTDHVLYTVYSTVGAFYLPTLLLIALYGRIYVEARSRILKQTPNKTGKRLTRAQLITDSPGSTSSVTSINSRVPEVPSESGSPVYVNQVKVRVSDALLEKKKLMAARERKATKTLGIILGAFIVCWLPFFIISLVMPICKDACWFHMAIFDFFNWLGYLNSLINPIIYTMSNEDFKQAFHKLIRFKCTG

Target: T1, 5-HT1B (Rattus norvegicus, UniProt P28564)
T1 construct: from tissue; host or cells: rat brain: frontal cortex, hippocampus
Experiment: Receptor binding in vitro, 5-HT1B (3H-5-HT displacement, with 50 nM 8-OH-DPAT)
Description: Compounds of the general formula (I) were tested for binding to 5-HT receptors and compared with known ligands by the following procedure:
Rat brain tissue (as specified in the table hereinafter) was homogenized using a Polytron homogenizer. The final pellet was resuspended in 125 vol (tissue wet weight) of buffer.
In all assays incubation was carried out for 10 min at 37° C.
Labelling of the 5-HT1B receptor was complicated by the fact that the available ligand ^3 H-5-HT is nonselective.
Detailed conditions for the receptor binding assay in vitro are tabulated below.

CC1(C)CC(=O)N(CCCCN2CCN(c3ncccn3)CC2)C(=O)C1 [gepirone, reference compound]
IC50: > 1 µM
